# scFv variants of Ab-14 (heavy chain) against a SARS-CoV-2 spike peptide

Source: Li et al. 2023 (doi:10.1038/s41467-023-39022-2), MIT Lincoln Laboratory and A-Alpha Bio; data file from the FLAb repository.

Target: peptide PDVDLGDISGINAS, taken from heptad repeat 2 (HR2) of SARS-CoV-2 spike.

The variants keep the light chain, the linker and the frameworks of Ab-14 (scFv order VH, the linker GGGGSGGGGSGGGGS, VL).
VH: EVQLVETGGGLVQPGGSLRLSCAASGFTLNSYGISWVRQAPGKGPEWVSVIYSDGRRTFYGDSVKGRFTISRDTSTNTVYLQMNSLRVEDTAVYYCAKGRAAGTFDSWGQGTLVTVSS
VL: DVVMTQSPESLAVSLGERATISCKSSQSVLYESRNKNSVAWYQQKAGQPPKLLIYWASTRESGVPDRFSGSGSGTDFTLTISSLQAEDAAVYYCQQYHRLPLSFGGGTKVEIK

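The parent was found by panning a naive human phage display library on the peptide. The variants were designed computationally from a first round of random CDR variants and then made and measured. Their group label is 14H_En_Gen (En: ensemble of fine-tuned language models; Gen: genetic algorithm). The assay is AlphaSeq: two haploid yeast populations carry antibody and antigen on their surface. Binding brings cells together so that they mate, and sequencing counts the barcode pairs among the diploids. Each replicate has its own calibration line, from reference interactions of the BCL2 family. Each pool was mated in six replicate cultures.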

Each variant is given by its three heavy chain CDRs, as the data file delimits them; those of the parent are GFTLNSYGIS, VIYSDGRRTFYGDSVK, GRAAGTFDS. Values are log10 of the apparent Kd in nM; lower means stronger binding. A pair that was not seen in that replicate is written "ND"; this usually means weak binding, but a binder can also be missed. The authors averaged sequences with at least three values out of six and counted those with two or fewer as poor binders.

CDR-H1,CDR-H2,CDR-H3,log10 Kd (nM) by replicate,empty controls
GFDLNEYGIS,VIYADGVRTSYADDVK,GNNAGTFDV,-1.13 -1.39 -1.19 -1.45 -1.08 -0.59,0/18
GFDLNEYGIS,VIYADGKRTAYADNVK,GTVAGTFDV,-0.66 -0.30 -0.16 -0.69 -0.79 -0.29,0/18
GFDLNEYGIS,VIYADGMRTAYTDSVK,GQNAGTFDI,-0.23 -1.70 -1.72 -1.65 -1.41 -1.37,0/18
GFDLNEYGIS,VIYADGMRKAYADSVK,GENAGTFDL,-0.33 -0.70 -0.29 -0.36 -0.63 -0.37,0/18
GFDLDEYGIS,VIYADGRRTAYADSVK,GENAGTFDQ,-0.78 -0.57 -0.56 -0.85 -0.63 -0.91,0/18
GFDLDEYGIS,VIYADGRRTAYANSVK,GNVAGTFDV,-0.33 -0.67 -0.88 -0.87 -0.65 -0.76,0/18
GFDLDEYGIS,VIYADGRRTAYADKVK,GNNAGTFDV,-0.03 -0.10 -0.09 -0.43 -0.41 0.23,0/18
GFDLNEYGIS,VIYADGKRTAYSDSVK,GQVAGTFDI,-0.59 -0.54 -0.66 -0.18 -0.79 -0.51,0/18
GFDLNEYGIS,VIYADGKRTAYTDSVK,GANAGTFDV,-0.26 -0.53 -0.43 -0.55 -0.33 -0.35,1/18 (2.74)
GFDLNEYGIS,VIYADGQRTAYADSVK,GEIAGTFDV,-0.07 -0.05 -0.46 -0.39 -0.61 -0.50,0/18
GFDLNEYGIS,VIYADGVRTVYADSVK,GQNAGTFDI,-0.08 -0.15 -0.45 -0.29 -0.59 -0.36,0/18
GFDLNEYGIS,VIYADGVRTAYADDVK,GENAGTFDI,-0.15 -0.39 -0.49 -0.30 -0.38 -0.23,1/18 (4.79)
GFDLDEYGIS,VIYADGVRTAYIDSVK,GNVAGTFDL,-0.16 -0.20 -0.56 -0.07 -0.29 -0.23,0/18
GFDLNEYGIS,VIYADGKRTAYADDVK,GNTAGTFDV,-0.32 -0.67 -0.23 -0.44 -0.44 0.04,0/18
GFNLDEYGIS,VIYADGMRTAYSDSVK,GETAGTFDV,0.11 0.00 -0.36 -0.36 -0.39 -0.22,1/18 (1.78)
GFDLNEYGIS,VIYADGMRTAYVDSVK,GTNAGTFDV,-0.12 -0.35 -0.45 -0.45 -0.36 -0.29,0/18
GFDLDEYGIS,VIYADGKRTAYADSVK,GNVAGTFDL,-0.99 -1.09 -0.77 -1.27 -1.39 -0.53,0/18
GFDLNEYGIS,VIYADGKRTAYSDSVK,GQNAGTFDL,ND ND ND ND ND ND,0/18
GFDLDEYGIS,VIYADGKRTAYIDSVK,GETAGTFDV,-0.19 -0.77 -0.48 -0.72 -0.91 -0.39,1/18 (1.21)
GFDLDEYGIS,VIYADGKRTFYADSVK,GEVAGTFDV,-0.15 -0.21 -0.47 -0.50 -0.39 -0.15,1/18 (1.39)
GFDLNEYGIS,VIYADGKRTAYVDSVK,GENAGTFDI,-0.37 -0.23 -0.65 -0.97 -0.46 -0.42,0/18
GFDLNEYGIS,VIYADGLRTAYVDSVK,GNVAGTFDV,-0.15 -0.44 -0.25 -0.48 -0.50 -0.15,0/18
GFDLNEYGIS,VIYADGMRKAYADDVK,GNNAGTFDV,-0.52 -0.68 -0.76 -0.65 -0.61 -0.64,0/18
GFDLDEYGIS,VIYADGRRTAYADSVK,GTNAGTFDT,-0.16 -0.49 -0.55 -0.44 -0.68 -0.38,1/18 (1.06)
GFDLNEYGIS,VIYADGQRTFYADSVK,GNVAGTFDM,-0.57 -0.71 -0.70 -0.87 -0.83 -0.68,0/18
GFDLDEYGIS,VIYADGMRTAYSDSVK,GTNAGTFDI,0.34 -0.10 0.05 -0.06 0.72 0.15,1/18 (2.03)
GFDLDEYGIS,VIYADGMRTAYSDSVK,GNEAGTFDT,-0.58 0.73 0.19 0.30 -0.60 -0.09,0/18
GFDLNEYGIS,VIYADGKRTAYADSVK,GHVAGTFDV,-0.32 -1.17 -0.73 -0.73 -0.94 -0.83,0/18
GFDLDEYGIS,VIYADGQRTAYSDSVK,GEVAGTFDQ,-0.09 -0.21 -0.19 -0.50 -0.01 -0.09,0/18
GFDLNEYGIS,VIYADGQRTAYADSVK,GTNAGTFDT,0.04 -0.21 -0.72 -0.05 -0.21 -0.48,0/18
GFDLDEYGIS,VIYADGKRTAYSDDVK,GENAGTFDV,-0.11 0.42 -0.24 0.03 -0.08 -0.03,0/18
GFDLDEYGIS,VIYADGRRTAYSDSVK,GQNAGTFDV,-0.47 -0.52 -0.66 -0.73 -0.71 -0.21,0/18
GFDLNEYGIS,VIYADGKRTAYANSVK,GEVAGTFDI,-0.47 -0.23 -0.34 -0.89 -0.19 -0.62,0/18
GFDLNEYGIS,VIYADGQRTVYADSVK,GNTAGTFDV,-0.26 0.09 0.00 -0.42 0.31 0.40,0/18

Top 3 of the variants detected in all replicates, tightest first:

CDR-H1,CDR-H2,CDR-H3,log10 Kd (nM) by replicate,empty controls
GFDLNEYGIS,VIYADGMRTAYTDSVK,GQNAGTFDI,-0.23 -1.70 -1.72 -1.65 -1.41 -1.37,0/18
GFDLNEYGIS,VIYADGVRTSYADDVK,GNNAGTFDV,-1.13 -1.39 -1.19 -1.45 -1.08 -0.59,0/18
GFDLDEYGIS,VIYADGKRTAYADSVK,GNVAGTFDL,-0.99 -1.09 -0.77 -1.27 -1.39 -0.53,0/18

Empty control strains, which show no peptide, gave a signal in 1% of pairings with all heavy chain designs; the median was 2.08 and 95% of these signals were weaker than 0.84. No background was subtracted. For each scFv, signals with the empty controls are counted beside the result, with their mean in brackets. A sequence measured in both rounds can read differently, since the two assays cover different ranges. The parent sequence was in this pool as ten entries: three were never detected, three once, and four in most replicates, with averages from 0.34 to 2.37.